Results reported in published antibiotic growth screens (doi:10.1038/s41589-023-01349-8).
Some of the results follow.

tested on: A. baumannii ATCC 17978; experiment: relative growth (fraction of control); higher = less inhibition; conditions: 50 µM

Row | Compound | relative growth
1 | CCN(CC)CCNC(=O)c1cc(Br)c(N)cc1OC | 1.03
2 | C[C@@H]1CN([C@H](C)CO)S(=O)(=O)c2ccc(C#Cc3ccc(F)cc3)cc2O[C@@H]1CN(C)CC1CC1 | 0.83
3 | C[C@@H]1CN([C@H](C)CO)S(=O)(=O)c2ccc(C#CCN(C)C)cc2O[C@@H]1CN(C)C(=O)CN(C)C | 0.954
4 | CN1CCN(C(=O)C[C@@H]2CC[C@H](NC(=O)Cc3ccccn3)[C@H](CO)O2)CC1 | 0.957
5 | O=C(CCC(=O)N1CCOCC1)Nc1c(F)c(F)nc(N2CCOCC2)c1F | 1.02
6 | NC[C@H](c1cccc(F)c1)N1CCCCC1 | 0.831
7 | CC1(C)O[C@@H]2[C@@H](CO[C@@]3(COS(N)(=O)=O)OC(C)(C)O[C@@H]23)O1 | 1.09
8 | CCCNC(=O)N1C[C@@H](O)COC[C@@H]2O[C@H](CC(=O)NCCCN3CCOCC3)CC[C@H]21 | 0.942
9 | C[C@H](NC(=O)C[C@H]1C[C@@H]2c3cc(NC(=O)Nc4ccc(C(F)(F)F)cc4)ccc3O[C@@H]2[C@@H](CO)O1)c1ccccc1 | 1.15
10 | CNC(=O)CN(C#N)c1nc(N(C)C)nc(N(C)C)n1 | 1.05
11 | COc1cccc(C#Cc2ccc3c(c2)O[C@H](CN(C)C(C)=O)[C@H](C)CN([C@H](C)CO)S3(=O)=O)c1 | 0.937
12 | OCC(CO)N[C@H]1C[C@](O)(CO)[C@@H](O)[C@H](O)[C@H]1O | 1.18
13 | CC(=O)Nc1cccc(S(N)(=O)=O)c1 | 0.912
14 | CO[C@H]1CN(C)C(=O)c2cc(NS(=O)(=O)c3cn(C)cn3)ccc2OC[C@@H](C)N(CCC(F)(F)F)C[C@H]1C | 0.981
15 | C=C(/C=C\CNS(=O)(=O)c1ccc(C)cc1)[C@H](O)[C@H]1CCCN1S(=O)(=O)c1ccccc1[N+](=O)[O-] | 0.906
16 | CN1CC(=O)N2[C@H](c3ccc4c(c3)OCO4)c3[nH]c4ccccc4c3C[C@@H]2C1=O | 1.31
17 | Cn1cc(S(=O)(=O)N2CCN(c3ccc(F)cc3)CC2)c(=O)n(C)c1=O | 1.13
18 | O=C1O[C@H](c2ccccc2)[C@H](c2ccccc2)N2[C@H]1[C@@H](C(=O)N1CCCCCCC1)[C@]1(C(=O)Nc3ccc(C#CC4(O)CCCCCC4)cc31)[C@H]2c1ccc(O)cc1 | 0.874
19 | Cl.Cl.NCCNCCNCCN | 1.08
20 | CCS(=O)(=O)Nc1ccc2c(c1)CC(=O)N2 | 0.937
21 | Cn1nnnc1SCC1=C(C(=O)[O-])N2C(=O)C(NC(=O)C(OC=O)c3ccccc3)C2SC1.[Na+] (stereo unspecified) | 0.899
22 | CCn1c(=S)ccc2ccccc21 | 1.11

Row | Compound | relative growth
23 | CC(C)OC(=O)[C@@H](C)Nc1n[nH]c(=O)[nH]c1=O | 0.971
24 | O=C(N1CCN(CCO)CC1)C(F)(F)F | 1.05
25 | O=C(C[C@H]1CC[C@@H]2[C@H](COC[C@@H](O)CN2C(=O)c2ccncc2)O1)NCc1ccc(-c2ccccc2)cc1 | 1.03
26 | O=C(C[C@@H]1C[C@@H]2c3cc(NS(=O)(=O)c4ccc(F)cc4)ccc3O[C@@H]2[C@@H](CO)O1)NCc1cccc(F)c1 | 0.978
27 | Cc1ccc(S(=O)(=O)N[C@@H]2CC[C@H](CCNC(=O)CN3CCOCC3)O[C@@H]2CO)cc1 | 1.09
28 | CSCC[C@H](NC(=O)[C@H](Cc1c[nH]c2ccccc12)NC(=O)CCNC(=O)OC(C)(C)C)C(=O)N[C@@H](CC(=O)O)C(=O)N[C@@H](Cc1ccccc1)C(N)=O | 1.01
29 | C=CCOC(=O)[C@@H]1[C@H]2C(=O)O[C@H](c3ccccc3)[C@H](c3ccccc3)N2[C@H](c2ccc(OCCOC(=O)[C@H]3C[C@H]4C(=O)N[C@@H](CCCCNC(C)=O)C(=O)N4[C@H]3c3ccc(O)cc3)cc2)[C@@]12C(=O)Nc1ccc(I)cc12 | 1.09
30 | CCOCc1c[nH]c(=O)[nH]c1=O | 0.93
31 | CC(C)NNC(=O)c1ccncc1 | 0.905
32 | CO[C@H]1CN(C)C(=O)c2cc(NC(=O)C3CC3)ccc2OC[C@H](C)N(C(=O)C2CCOCC2)C[C@@H]1C | 1.02
33 | O=[N+]([O-])c1ccc(NCCNCCO)cc1 | 0.935
34 | O=C1c2cccc(O)c2C(=O)c2c(O)cccc21 | 1.1
35 | O=C([O-])C1=C(CSc2nnnn2CS(=O)(=O)[O-])CS[C@@H]2C(NC(=O)[C@H](O)c3ccccc3)C(=O)N12.[Na+].[Na+] (stereo partly specified) | 1.04
36 | CN(C)S(=O)(=O)c1ccc(CN)cc1 | 1.06
37 | Clc1cccc(Cc2cn3cc(-c4ccccc4)nc3s2)c1 | 1.04
38 | Cc1cccc(-c2nc3ccccc3n2CCC(C)C)c1 | 0.807
39 | Nn1c([C@@H](O)c2ccccc2)n[nH]c1=S | 0.952
40 | COc1ccc(S(=O)(=O)N2C[C@H](O)COC[C@H]3O[C@H](CC(=O)NCCN4CCCCC4)CC[C@@H]32)cc1 | 1.11
41 | CC[N+](C)(CC)CCOC(=O)C(O)(c1ccccc1)C1CCCCC1.[Br-] (stereo unspecified) | 1.27
42 | C=CC[C@H](CC(=O)N(CCO)Cc1ccccc1)C(=O)NCCOC(=O)[C@@H](CC=C)CC(=O)OC(C)(C)C | 0.673
43 | O=C1O[C@@H](c2ccccc2)[C@@H](c2ccccc2)N2[C@@H](c3ccc(OCCO)cc3)[C@]3(C(=O)Nc4ccc(C#CCCO)cc43)[C@@H](C(=O)N3CCCCCCC3)[C@H]12 | 0.941
44 | C[C@H](CO)N1C[C@H](C)[C@H](CN(C)C(=O)C2CCCCC2)Oc2ncc(C#CC3(O)CCCC3)cc2C1=O | 0.904

Row | Compound | relative growth
45 | O=C(N[C@@H]1CC[C@@H](CCn2cc(C3(O)CCCC3)nn2)O[C@H]1CO)C1CCOCC1 | 1.02
46 | CCOC(N)=O | 1.15
47 | COc1ccc([Si](C)(C)[C@@H]2[C@@H](CCO)O[C@]3(C(=O)N(Cc4cccc(N5C(=O)COc6ccccc65)c4)c4ccccc43)[C@H]2C)cc1 | 1.28
48 | CCNC(=O)C[C@H]1C=C[C@H](NC(=O)C2CCOCC2)[C@@H](CO)O1 | 0.939
49 | Clc1ccc2nc(Cl)cc(-c3ccccc3)c2c1 | 1.03
50 | C[C@@H]1CN([C@@H](C)CO)C(=O)c2cc(C#CC3(O)CCCC3)cnc2O[C@H]1CN(C)S(=O)(=O)c1ccccc1 | 0.997
51 | CCN(CC)C(=O)[C@@]1(c2ccccc2)C[C@H]1CN.Cl | 1.25
52 | COc1ccc(CCNS(=O)(=O)c2cn(C)c(=O)n(C)c2=O)cc1 | 0.971
53 | COc1cccc(NC(=O)N2C[C@@H](O)COC[C@@H]3O[C@H](CC(=O)NCCCN4CCOCC4)CC[C@H]32)c1 | 1.05
54 | COC(=O)/C(=C1\OC(=O)C(c2ccccc2)=C1O)c1ccccc1 | 1.13
55 | O=C(O)CC[C@H](NC(=O)CCn1nnc2ccccc2c1=O)C(=O)O | 1.02
56 | COc1ccc([C@@H]([C@H](Cc2ccccc2)OC(C)=O)N2C[C@@H](OC(C)=O)[C@H]3C(=NO[C@@H]3c3ccccc3)[C@@H]2Cc2ccccc2)cc1 | 1.28
57 | COC(=O)c1ccc(Cn2cc(C(=O)NO)nn2)o1 | 1.22
58 | C[C@@H]1COCS(=O)(=O)N1 | 1.21
59 | O=C(O)CCC(=O)c1ccc(-c2ccccc2)cc1 | 0.91
60 | CN(C)C(=O)C[C@@H]1CC[C@@H](NC(=O)C2CCOCC2)[C@H](CO)O1 | 1.04
61 | Cc1cc(=O)n2ncnc2n1CC(=O)NN | 0.995
62 | COCC(=O)Nc1ccc2c(c1)OC[C@H](C)N(C(=O)c1ccccc1F)C[C@@H](C)[C@@H](OC)CN(C)C2=O | 0.967
63 | C[C@H](CO)N1C[C@H](C)[C@@H](CN(C)S(=O)(=O)c2ccc(F)cc2)Oc2cc(C#Cc3ccncc3)ccc2S1(=O)=O | 1.15
64 | OC[C@H]1O[C@H](n2cnc3cncnc32)[C@@H](O)[C@@H]1O | 0.728
65 | COc1cccc(CNC(=O)C[C@H]2C=C[C@H](NC(=O)C3CCOCC3)[C@H](CO)O2)c1 | 1.06
66 | O=C(C[C@H]1C=C[C@@H](NC(=O)C2CCC2)[C@H](CO)O1)NCCCN1CCOCC1 | 1

Row | Compound | relative growth
67 | C[C@H](CO)N1C[C@H](C)[C@@H](CN(C)C(=O)Nc2cccc(Oc3ccccn3)c2)OCc2cn(nn2)CCCC1=O | 0.994
68 | N[C@@H](Cc1ccc(O)c(O)c1)C(=O)O | 0.907
69 | CO[C@@]12[C@@H]3N[C@@H]3CN1C1=C(C(=O)C(N)=C(C)C1=O)[C@@H]2COC(N)=O | 0.154
70 | C(=N\c1nc2ccccc2[nH]1)/N(c1ccccc1)c1ccccc1 | 1.17
71 | O=C(Cc1ccncc1)Nc1ccc2c(c1)[C@H]1C[C@@H](CC(=O)N3CCc4ccccc4C3)O[C@H](CO)[C@H]1O2 | 0.954
72 | CCOC(=O)c1cc2c(=O)n(C)c(=O)n(C)c2[nH]c1=O | 1.03
73 | CN(C)c1nc2c([nH]1)c(=O)[nH]c(=O)n2C | 0.944
74 | COc1ccc(-c2ccc3c(c2)O[C@H](CN(C)CC2CCOCC2)[C@@H](C)CN([C@@H](C)CO)S3(=O)=O)cc1 | 0.9
75 | CCCNc1nc(=O)c(C)n[nH]1 | 0.972
76 | O=c1nc[nH]c2c1ncn2[C@@H]1C[C@@H](O)[C@H](CO)O1 | 0.948
77 | Cc1[nH]c(=O)[nH]c(=O)c1S(=O)(=O)N1CCC(C(=O)N[C@H](C)c2ccccc2)CC1 | 0.996
78 | CCCc1ccc2c(c1)CNCCC2 | 1.05
79 | O=C(C[C@@H]1CC[C@@H]2[C@H](COC[C@@H](O)CN2S(=O)(=O)c2ccc(F)cc2)O1)N[C@H]1CCN(Cc2ccccc2)C1 | 1.07
80 | CO[C@H]1O[C@H](CO)C(=O)C(=O)[C@@H]1N | 0.967
81 | C[C@@H]1CN([C@H](C)CO)S(=O)(=O)c2ccc(C3=CCCCC3)cc2O[C@@H]1CN(C)S(=O)(=O)c1cn(C)cn1 | 0.772
82 | C=c1ccc(S(=O)(=O)N2CCCC2)cc1=C1NN=C2c3ccccc3C(C)=NN21 | 1.01
83 | COC(=O)[C@H](c1ccccc1Cl)N1CCc2sccc2C1.O=S(=O)(O)O | 1.16
84 | O=C(N[C@H]1CC[C@@H](CC(=O)N2CCOCC2)O[C@H]1CO)c1ccccn1 | 1.01
85 | O=C([O-])Cc1ccccc1Nc1c(Cl)cccc1Cl.[Na+] | 1.03
86 | COc1cc(O)cc(OC)c1OC | 1.05
